Laboratory results from US9745288B2, “Compounds and methods for treating cancer by inhibiting the urokinase receptor” (Indiana University Research and Technology Corporation, priority 2011, dated 2017).
pIC50, pKi: −log10 of the molar value.

Amino acid sequences for entries named in this document (tags omitted). Residues count along the entry.
UniProt Q03405, 23-305 limits assumed: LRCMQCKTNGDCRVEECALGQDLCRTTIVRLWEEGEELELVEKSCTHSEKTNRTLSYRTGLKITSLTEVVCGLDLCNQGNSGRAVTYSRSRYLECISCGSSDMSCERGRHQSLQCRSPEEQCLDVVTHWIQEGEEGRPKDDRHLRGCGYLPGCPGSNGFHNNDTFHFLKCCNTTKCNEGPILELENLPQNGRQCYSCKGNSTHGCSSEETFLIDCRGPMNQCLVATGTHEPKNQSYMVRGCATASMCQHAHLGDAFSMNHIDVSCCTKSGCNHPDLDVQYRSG

Experiments:
[1] = target: uPAR (Homo sapiens, UniProt Q03405); test: Fluorescence polarization assay, displacement of AE147-FAM peptide from uPAR; conditions: Table 1; assay not stated
[2] = test system: MDA-MB-231 cells; test: Migration assay (Boyden chamber without Matrigel); type: cell-based, human; conditions: compared to the control
[3] = test system: MDA-MB-231 cells; test: Adhesion assay on fibronectin-coated wells; type: cell-based, human
[4] = test system: MDA-MB-231 cells; test: MTT proliferation assay
[5] = test system: AsPC-1 (human pancreas adenocarcinoma cell line); test: MTT assay
[6] = test system: PANC-1 cells; test: MTT assay
[7] = test system: different signaling molecules; test: Western blot analysis of signaling; conditions: n=1

`Cc1ccc(-n2ncc(C(=O)Nc3ccccc3OCc3ccccc3)c2C2CCNCC2)cc1C` was tested, and the pIC50 [1] was 4.52, the pKi [1] was 5.04 and the “cell migration” value [2] was “capable of inhibiting cell migration”. The “cell adhesion, comparison of compounds” value ([3]; 50 μM) was “significantly more active in this assay than the IPR-81 and IPR-69 compounds”, the “cell adhesion” value ([3]; MDA-MB-231) was “capable of inhibiting breast cancer cells” and the “cell proliferation / viability (MTT, words)” value [4] was “inhibited cell proliferation”. The “cell proliferation (MTT, words)” value [5] was “inhibited cell proliferation”, the “cell proliferation / viability (MTT, words)” value [6] was “inhibited cell proliferation” and the “effect on signaling molecules” value [7] was “did not seem to be much of an effect”.
